For test [1], the target named is Glutamate NMDA receptor. Kind of test: Activity against rat cortical and hippocampal membrane N-methyl-D-aspartate glutamate receptor 1/2A/2B/2C/2D using [3H]CPP. It counts as tissue-based, Hippocampus.
Test [2] addresses Glutamate NMDA receptor. As to the kind of experiment: Activity against rat cortical and hippocampal membrane strychnine-insensitive N-methyl-D-aspartate glutamate receptor 1 using [3H]-gly. It counts as tissue-based, Hippocampus.

As usually defined, the IC50 is the point on the concentration scale where inhibition reaches its midpoint. On to `O=C(O)c1cc(=O)c2ccccc2[nH]1` [TRANSTORINE], for which the figures for the IC50 on Glutamate NMDA receptor [1] and on Glutamate NMDA receptor [2] were 75 µM and 16 µM, respectively.

The record behind these values is ChEMBL document CHEMBL1124998, “3-(2-carboxyindol-3-yl)propionic acid derivatives: antagonists of the strychnine-insensitive glycine receptor associated with the N-methyl-D-aspartate receptor complex” (J Med Chem, 1990).
